The structures appear in SMILES notation.

By IC50 is commonly meant the midpoint of a concentration-inhibition curve. A lower IC50 goes with higher potency.

Assay [1] deals with T1, human carbonic anhydrase II (hCA II) (Homo sapiens, UniProt P00918).
T1 construct: The packed erythrocytes were washed three times with 0.9% NaCl and then were hemolyzed in cold water; from tissue
Kind of assay: Esterase activity assay (4-nitrophenyl-acetate), hCA II. It counts as biochemical. As to conditions: esterase method, 348 nm, 25 °C.

Assay [2] addresses T1, human carbonic anhydrase II (hCA II). In words: CO2 hydratase activity assay (Maren method), hCA II. It counts as biochemical. As to conditions: enzyme purified from human erythrocytes.

On to `CC(=O)Oc1ccccc1C(=O)O` [Acetylsalicylic acid], for which the IC50 was determined as 58.3 µM in assay [1] and 246 µM in assay [2].
